Data: patent US9040694B1, “Compounds and methods useful for directing stem cell differentiation” (priority 2009, dated 2015)

Target: AMPK
Assay: In vitro kinase assay (Reaction Biology Corp)
Format: biochemical
Conditions: 10 μM ATP; purified kinase

`c1cc(-c2cnn3cc(-c4ccc(OCCN5CCCCC5)cc4)cnc23)ccn1` [Dorsomorphin, 6-[4-(2-Piperidin-1-yl-ethoxy)phenyl]-3-pyridin-4-yl-pyrazolo[1,5-a]pyrimidine] was tested, and the IC50 was 318 nM.
